The format of this data set is in vivo, human (healthy adult subjects). Conditions: human, plasma, oral.

By Tmax is commonly meant the time from dosing to the highest level.

Consider `COc1ccc2[nH]c([S+]([O-])Cc3ncc(C)c(OC)c3C)nc2c1` (stereo not shown) [Omeprazole], for which the Tmax was 1.5 h.

Values taken from publication PMC4153963 (Drugs in R&D, 2014).
